For one compound, IC50 results are on record in patent US6420558B1, “Aminopiperidine derivates as integrin αvβ3 antagonists” (Meiji Seika Kaisha, Ltd., priority 1998, dated 2002).

Sequences of proteins named here, by UniProt entry; tags and fusion partners are left off. Residues count along the entry.
UniProt P05556, 21-798 limits assumed: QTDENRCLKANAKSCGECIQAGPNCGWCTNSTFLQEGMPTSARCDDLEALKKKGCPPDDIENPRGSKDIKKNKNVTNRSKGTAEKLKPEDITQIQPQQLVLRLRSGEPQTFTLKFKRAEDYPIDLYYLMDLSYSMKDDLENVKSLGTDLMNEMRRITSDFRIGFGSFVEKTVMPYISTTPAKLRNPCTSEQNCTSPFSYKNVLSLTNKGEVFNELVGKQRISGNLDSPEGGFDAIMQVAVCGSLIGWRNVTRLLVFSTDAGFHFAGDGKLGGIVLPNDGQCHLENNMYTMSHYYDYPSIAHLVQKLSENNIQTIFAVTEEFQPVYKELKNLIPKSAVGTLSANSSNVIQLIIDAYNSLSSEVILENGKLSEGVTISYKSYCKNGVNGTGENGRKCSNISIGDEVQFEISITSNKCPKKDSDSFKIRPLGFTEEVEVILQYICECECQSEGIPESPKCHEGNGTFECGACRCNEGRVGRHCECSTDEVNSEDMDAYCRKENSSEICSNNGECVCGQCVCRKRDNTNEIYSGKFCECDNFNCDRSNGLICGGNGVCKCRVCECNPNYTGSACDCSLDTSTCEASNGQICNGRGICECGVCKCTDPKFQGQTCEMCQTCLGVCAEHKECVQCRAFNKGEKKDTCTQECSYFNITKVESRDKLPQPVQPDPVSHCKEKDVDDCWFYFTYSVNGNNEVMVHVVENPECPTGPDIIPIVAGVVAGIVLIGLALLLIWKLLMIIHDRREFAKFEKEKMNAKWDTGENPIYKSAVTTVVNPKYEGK
UniProt P08648, 42-894 limits assumed: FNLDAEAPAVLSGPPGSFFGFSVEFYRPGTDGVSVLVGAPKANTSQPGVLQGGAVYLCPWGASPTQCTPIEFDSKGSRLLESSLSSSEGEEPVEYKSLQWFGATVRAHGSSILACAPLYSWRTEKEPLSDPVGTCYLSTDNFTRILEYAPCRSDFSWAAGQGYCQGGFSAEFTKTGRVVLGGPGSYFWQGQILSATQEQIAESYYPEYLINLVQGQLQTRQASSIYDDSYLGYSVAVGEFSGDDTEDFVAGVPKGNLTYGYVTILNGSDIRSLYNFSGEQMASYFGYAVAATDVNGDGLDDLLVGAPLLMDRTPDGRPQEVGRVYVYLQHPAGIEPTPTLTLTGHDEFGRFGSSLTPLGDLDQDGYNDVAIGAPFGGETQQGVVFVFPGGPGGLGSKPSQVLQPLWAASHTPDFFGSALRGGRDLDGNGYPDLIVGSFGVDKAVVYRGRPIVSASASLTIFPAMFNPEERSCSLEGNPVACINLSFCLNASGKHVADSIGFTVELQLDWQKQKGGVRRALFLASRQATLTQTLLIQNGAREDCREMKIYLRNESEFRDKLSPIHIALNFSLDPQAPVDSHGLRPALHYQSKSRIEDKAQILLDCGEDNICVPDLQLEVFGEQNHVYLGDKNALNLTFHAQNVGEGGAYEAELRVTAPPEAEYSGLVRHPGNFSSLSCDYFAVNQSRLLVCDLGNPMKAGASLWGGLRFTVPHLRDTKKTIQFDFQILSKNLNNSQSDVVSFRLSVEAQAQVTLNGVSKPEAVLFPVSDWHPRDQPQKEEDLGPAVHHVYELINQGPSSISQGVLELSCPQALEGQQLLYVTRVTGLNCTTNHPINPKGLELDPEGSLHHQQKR
UniProt P08648, 895-1049 limits assumed: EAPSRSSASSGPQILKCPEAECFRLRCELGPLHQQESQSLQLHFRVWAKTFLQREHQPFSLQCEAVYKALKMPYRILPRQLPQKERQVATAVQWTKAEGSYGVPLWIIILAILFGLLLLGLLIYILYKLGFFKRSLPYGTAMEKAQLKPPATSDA

The target of the assay is integrin α5β1 (fibronectin receptor purified from the human placenta) (Homo sapiens, UniProt P05556+P08648). In words: α5β1 binding assay (fibronectin-fibronectin receptor binding assay). Particulars: read-out: α5β1 Binding inhibitory activity; fibronectin binding to human placenta fibronectin receptor. Here is the method: Integrin α5β1 antagonistic activity (lethality) was measured for the compounds according to the present invention in a fibronectin-fibronectin receptor binding assay system in accordance with the method of Kouns et al. (W. C. Kouns, D. Kirchhofer, P. Hadvary, A. Edenhofer, T. Weller, G. Pfenninger, H. R. Baumgartner, L. K. Jennings, and B. Steiner, Blood, 80, 2539-2547 (1992)).
Specifically, a fibronectin receptor (protein content: 52.1 μg/ml) purified from the human placenta by the method of Pytela et al. (R. Pytela, M. D. Pierschbacher, S. Argraves, S. Suzuki, and E. Ruoslahti, Method in Enzymology, 144, 475-489 (1987)) was diluted 25 times with TBS (20 mM Tris-HCl, 150 mM NaCl, 1 mM CaCl2, 1 mM MgCl2, pH 7.4), and distributed and coated on wells (50 μl/well) of a plate (Maxisorp, Nunc, 96 well Immuno Plate). […] A 0.1 M citric acid buffer (pH 4.3) containing 0.05% NaN3 was added in an amount of 50 μl/well to stop the reaction, followed by the measurement of the absorbance at 415 nm with a microplate reader (MTP 32, Corona Electric) (reference: 675 nm). The total binding was defined as the absorbance after a reaction using 50 μl of TBS-Tween instead of the test compound, and the non-specific binding (100% inhibition) was defined as the absorbance after a reaction using 50 μl of TBS-Tween containing 2×10^−3 M RGDS. The inhibition was calculated by the following equation: [formula] […]

Take `N=C(N)NC1CCN(c2ccc(C(=O)NC[C@H](NS(=O)(=O)c3ccccc3)C(=O)O)cc2)CC1`: the IC50 is 2.5 µM.
